The chains behind the UniProt entries cited, without tags or fusion partners. Residues count along the entry.
UniProt P36897, 34-503 limits assumed: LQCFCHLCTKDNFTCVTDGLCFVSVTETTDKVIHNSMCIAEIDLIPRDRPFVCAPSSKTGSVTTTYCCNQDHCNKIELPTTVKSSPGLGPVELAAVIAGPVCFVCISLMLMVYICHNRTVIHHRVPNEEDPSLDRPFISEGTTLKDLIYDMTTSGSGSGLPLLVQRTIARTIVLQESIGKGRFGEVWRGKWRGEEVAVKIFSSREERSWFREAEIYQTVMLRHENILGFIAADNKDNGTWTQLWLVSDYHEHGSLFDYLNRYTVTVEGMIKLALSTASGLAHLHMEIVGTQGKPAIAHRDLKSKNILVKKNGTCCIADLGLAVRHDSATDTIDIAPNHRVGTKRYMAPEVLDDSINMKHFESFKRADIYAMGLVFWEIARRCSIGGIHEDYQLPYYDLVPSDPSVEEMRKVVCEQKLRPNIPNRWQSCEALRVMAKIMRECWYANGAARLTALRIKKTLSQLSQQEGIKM

According to patent US20210139477A1, “ALK5 INHIBITORS, CONJUGATES, AND USES THEREOF” (Silverback Therapeutics, Inc., priority 2019, published 2021):

Key:
[1] = system: TGFb/SMAD Signaling Pathway SBE reporter cell line; assay: TGFb reporter assay (TGFb/SMAD Signaling Pathway SBE luciferase reporter cell line); settings: read-out: EC50 (TGFb reporter activity); 5-6 h preincubation, then TGFb, 18 h, luciferase luminescence
Protocol: TGFβ/SMAD Signaling Pathway SBE reporter cell line was obtained from BPS Bioscience. Cells were passed, expanded, and stored in liquid nitrogen as per the supplier's instructions with the exception that growth media is changed to DMEM-C with Geneticin (DMEM supplemented with 10% fetal bovine serum, 1×NEAA, 1 mM Pyruvate, 2 mM glutamine, 50 μg/mL penicillin, 50 U/mL streptomycin and 400 μg/mL of Geneticin). The assay media was MEM supplemented with 0.5% fetal bovine serum, 1×NEAA, 1 mM Pyruvate, 50 μg/mL penicillin and 50 U/mL streptomycin.
TGFb/SMAD Signaling Pathway SBE reporter cell line was obtained from BPS Bioscience. […]
Reporter cells were harvested from the tissue culture flasks by incubation in small quantity of Versene at room temperature for three to five minutes after the media in the flask was removed and cells rinsed with PBS. Cells were counted and diluted in the assay media at 0.8×10^6 cells/mL then 50 uL/well were added to 96-well assay plate. […] Luciferase substrate solution was subsequently added at 75 uL per well, incubated in dark with shaking at room temperature for 10 min, and luminescence was measured using a luminometer.

[2] = biological target: ALK5 (Homo sapiens, UniProt P36897); assay: ALK5 enzyme inhibition assay (Reaction Biology Corp, 33P-ATP filter-binding, casein substrate); settings: read-out: IC50 (inhibition of ALK5), 10 uM ATP, 2 hours at room temperature
Protocol: ALK5 enzyme inhibition assays were performed by Reaction Biology Corp (Malvern, Pa.). 1 mg/mL of peptide substrate (casein) and 10 uM ATP were prepared in a mixture of fresh reaction buffer. The kinase was delivered into the substrate solution which was gently mixed. Compounds in 100% DMSO were added to the kinase reaction mixture by Acoustic technology (Echo550; nanoliter range) and the mixture was incubated for 20 min at room temperature. ^33P-ATP (Specific activity 10 uCi/uL) was added into the reaction mixture to initiate the reaction and the reaction mixture was incubated for 2 hours at room temperature. Radioactivity was detected by filter-binding method and kinase activity data were expressed as the percent remaining kinase activity in test samples compared to vehicle (dimethyl sulfoxide) reactions. IC50 values and curve fits were obtained using Prism (GraphPad Software).

An EC50 [1] of 0.1 to 10 nM and an IC50 [2] of 100 to 1000 nM were found for `Cc1cccc(-c2nc(CNCCc3ccc(F)cc3)[nH]c2-c2ccc3ncnn3c2)n1` in this work.
